This is a selection; strong and weak results do not stand in their true shares. Some tests of the compounds listed are not included; inactive here does not mean inactive elsewhere. Activity calls are given as the source filed them.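 Rule for the calls: active = fall in fluorescence gain of 50% or more versus controls, with final raw signal at or below 3038400; inconclusive = same 50% fall but final raw signal above 3038400; inactive = fall in fluorescence gain under 50%.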

Chains of the proteins cited; added tags and fusions are not shown.
UniProt Q03530, whole entry: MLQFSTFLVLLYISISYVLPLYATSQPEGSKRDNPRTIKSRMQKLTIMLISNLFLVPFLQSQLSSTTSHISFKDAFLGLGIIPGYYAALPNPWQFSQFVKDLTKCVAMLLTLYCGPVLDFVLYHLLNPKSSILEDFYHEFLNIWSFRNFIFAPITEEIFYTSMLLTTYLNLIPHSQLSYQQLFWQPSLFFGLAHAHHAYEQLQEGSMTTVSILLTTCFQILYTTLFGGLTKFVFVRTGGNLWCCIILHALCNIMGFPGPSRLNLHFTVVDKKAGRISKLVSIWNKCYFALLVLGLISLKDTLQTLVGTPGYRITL

The target in the assay is CAAX prenyl protease 2 (Saccharomyces cerevisiae (strain ATCC 204508 / S288c)) (UniProt Q03530). Description: yeast Rce1p protease inhibitors, primary screen, biochemical, fluorescence, cell-free homogeneous (AID 2563). The following applies: yeast membranes, quenched prenylated peptide cleavage fluorescence.
On to `COc1ccc(C(=O)NCC2(N(C)C)CCCCC2)cc1`, for which the outcome was inactive.

On to `O=C(NCC1(N2CCCCC2)CCCCC1)c1cccc(Br)c1`, for which the molecule was called inactive.

For `CCN1CCCC(OC(=O)C2(O)c3ccccc3C=Cc3ccccc32)C1` (stereo not drawn), the molecule was classed as inactive.

`Cc1cc(C(=O)NCC2(N3CCCCC3)CCCCC2)ccc1[N+](=O)[O-]`: the molecule was classed as inactive.

For the molecule `O=C(NCC1(N2CCCCC2)CCCCC1)c1cc(F)c(F)cc1Cl`, the molecule was called inactive.

Take `C=CCN1CCN(CCOC(=O)C(O)(c2ccccc2)c2ccccc2)CC1`: the call was inactive.

As for `CN(C)c1ccc(C(=O)NCC2(N(C)C)CCCCC2)cc1`, the molecule was called inactive.

As for `CN(C)C1CCCC1OC(=O)C(O)(c1ccccc1)c1ccccc1` (stereo not drawn), the molecule was classed as inactive.

As for `Cc1ccccc1C(=O)NCC1(N2CCCCC2)CCCCC1`, the molecule was called inactive.

Turning to `COc1cc(SC)ccc1C(=O)NCC1(N(C)C)CCCCC1`, the molecule was classed as inactive.

With `CCN(CC)CC(C)C(C)OC(=O)C(O)(c1ccccc1)c1ccccc1` (stereo not drawn), the result was inactive.

Consider `CC(C)N1C(=O)CC2(CCN(CCOC(=O)C(O)(c3ccccc3)c3ccccc3)CC2)C1=O`, for which the molecule was called inactive.

Turning to `CN1[C@@H]2CC[C@H]1CC(OC(=O)C(O)(c1ccccc1)c1ccccc1)C2` (stereo partly drawn), the molecule was classed as inactive.

Turning to `O=C(NCC1(N2CCCCC2)CCCCC1)c1cc([N+](=O)[O-])ccc1Cl`, the outcome was inactive.

On to `CC(C)Oc1ccc(C(=O)NCC2(N(C)C)CCCCC2)cc1`, for which the molecule was classed as inactive.

`CN(C)c1cccc(C(=O)NCC2(N(C)C)CCCCC2)c1`: the molecule was classed as inactive.

Consider `COc1ccc(Br)c(C(=O)NCC2(N3CCCCC3)CCCCC2)c1`, for which the call was inactive.

`O=C(OC1CN2CCC1CC2)C(CO)(c1ccccc1)c1ccccc1` (stereo not drawn): the result was inactive.

As to `O=C(NCC1(N2CCCCC2)CCCCC1)c1cccc(Cl)c1`, the molecule was classed as inactive.

`COc1ccc(Cl)cc1C(=O)NCC1(N(C)C)CCCCC1`: the outcome was inactive.

Take `COc1cccc(C(=O)NCC2(N3CCCCC3)CCCCC2)c1`: the molecule was called inactive.

Take `COc1cc(C(=O)NCC2(N(C)C)CCCCC2)c([N+](=O)[O-])cc1OC`: the molecule was called inactive.

Regarding `CN(C)C1(CNC(=O)c2ccc(Br)cc2)CCCCC1`, the outcome was inactive.

The values above are taken from PubChem BioAssay AID2563 (Broad Institute, 2010).
